The record followed here is ChEMBL document CHEMBL1136934, “Synthesis of some novel organic nitrates and comparative in vitro study of their vasodilator profile” (J Med Chem, 2009).

Holding throughout (conditions): strain Wistar
Test [1] concerns Aorta. Nature of the test: Vasodilatory activity in Wistar rat endothelium-denuded thoracic aortic ring assessed as inhibition of phenylephrine-induced contraction.
For test [2], the system named is Aorta. Nature of the test: Vasodilatory activity in Wistar rat endothelium-denuded cross tolerant thoracic aortic ring assessed as inhibition of phenylephrine-induced contraction preincubated with 0.55 mM GTN for 1 hr followed by washing.
Test [3] relates to Aorta. Nature of the test: Vasodilatory activity in Wistar rat endothelium-denuded thoracic aortic ring assessed as inhibition of phenylephrine-induced contraction drug treated 30 mins after ALDH2 inhibitor chloral hydrate treatment.
The test system of test [4] is Aorta. Nature of the test: Vasodilatory activity in Wistar rat endothelium-denuded thoracic aortic ring assessed as inhibition of phenylephrine-induced contraction drug treated 30 mins after ALDH2 inhibitor benomyl treatment.
Test [5] has as its system Aorta. Nature of the test: Vasodilatory activity in Wistar rat endothelium-denuded thoracic aortic ring assessed as inhibition of phenylephrine-induced contraction drug treated 30 mins after 1 uM soluble guanylate cyclase heme site inhibitor ODQ treatment.

As a reminder, the EC50 is the midpoint of the concentration-response curve. Turning to `O=[N+]([O-])OC[C@@H](O[N+](=O)[O-])[C@H](O[N+](=O)[O-])c1ccccc1`, the EC50 in the test with Aorta [1] turned out to be 220 nM; with Aorta [2], 650 nM; in the test with Aorta [3], 270 nM; in the test on Aorta [4] it was 350 nM; with Aorta [5] it was 22000 nM.

`O=[N+]([O-])OC[C@@H](O[N+](=O)[O-])[C@@H](O[N+](=O)[O-])c1ccccc1`: the EC50 is 290 nM with Aorta [1], 780 nM in the test on Aorta [2], 360 nM with Aorta [4] and 21000 nM in the test on Aorta [5].

Take `O=[N+]([O-])OC[C@H](O[N+](=O)[O-])[C@H](O[N+](=O)[O-])c1ccccc1`: the EC50 is 210 nM in the test on Aorta [1], 610 nM with Aorta [2], 320 nM in the test on Aorta [4] and 18000 nM with Aorta [5].

On to `O=[N+]([O-])OC[C@H](O[N+](=O)[O-])[C@@H](O[N+](=O)[O-])c1ccccc1`, for which the EC50 with Aorta [1] was found to be 280 nM; with Aorta [2], 1000 nM; in the test with Aorta [3], 210 nM; in the test on Aorta [4], 320 nM; in the test on Aorta [5], 30000 nM.
